{
  "source": "paper PMC7865145",
  "about": "“Identification of existing pharmaceuticals and herbal medicines as inhibitors of SARS-CoV-2 infection” (Proceedings of the National Academy of Sciences of the …, 2021)",
  "target": "Papain-like protease (nsp3) of SARS-CoV-2 (Severe acute respiratory syndrome coronavirus 2, UniProt P0DTD1)",
  "type": "biochemical",
  "data": [
    {"molecule": "Nc1nc2nc[nH]c2c(=S)[nH]1", "note": "[Thioguanine 3, Thioguanine]", "values": [
      {"measurement": "Inhibition % at 100 uM of compounds, Papain-like protease (nsp3)", "value": "N.I."}
    ]}
  ]
}
